# Literature values, collected in paper PMC11238383, “A review on the cultivation, bioactive compounds, health-promoting factors and clinical trials of medicinal mushrooms Taiwanofungus camphoratus, Inonotus obliquus and Tropicoporus linteus” (Fungal Biology and Biotechnology, 2024).
# Tested on: Gastric cancer cachexia patients
# Settings: ref Liu et al. [233]
smiles,measurement,value
C=C1CCC[C@]2(C)C=C3OC(=O)C(C)=C3C[C@@H]12 [Atractylenolide I],"appetite, KPS, PIF positive rates versus FOE","Significantly more effective than fish-oil-enriched nutritional supplementation (FOE) at improving appetite, Karnofsky performance status (KPS) and decreasing proteolysis-inducing factor (PIF) positive rates"
